{"sequences": {"note": "The chains behind the UniProt entries cited, without tags or fusion partners.", "UniProt Q92918, whole entry": "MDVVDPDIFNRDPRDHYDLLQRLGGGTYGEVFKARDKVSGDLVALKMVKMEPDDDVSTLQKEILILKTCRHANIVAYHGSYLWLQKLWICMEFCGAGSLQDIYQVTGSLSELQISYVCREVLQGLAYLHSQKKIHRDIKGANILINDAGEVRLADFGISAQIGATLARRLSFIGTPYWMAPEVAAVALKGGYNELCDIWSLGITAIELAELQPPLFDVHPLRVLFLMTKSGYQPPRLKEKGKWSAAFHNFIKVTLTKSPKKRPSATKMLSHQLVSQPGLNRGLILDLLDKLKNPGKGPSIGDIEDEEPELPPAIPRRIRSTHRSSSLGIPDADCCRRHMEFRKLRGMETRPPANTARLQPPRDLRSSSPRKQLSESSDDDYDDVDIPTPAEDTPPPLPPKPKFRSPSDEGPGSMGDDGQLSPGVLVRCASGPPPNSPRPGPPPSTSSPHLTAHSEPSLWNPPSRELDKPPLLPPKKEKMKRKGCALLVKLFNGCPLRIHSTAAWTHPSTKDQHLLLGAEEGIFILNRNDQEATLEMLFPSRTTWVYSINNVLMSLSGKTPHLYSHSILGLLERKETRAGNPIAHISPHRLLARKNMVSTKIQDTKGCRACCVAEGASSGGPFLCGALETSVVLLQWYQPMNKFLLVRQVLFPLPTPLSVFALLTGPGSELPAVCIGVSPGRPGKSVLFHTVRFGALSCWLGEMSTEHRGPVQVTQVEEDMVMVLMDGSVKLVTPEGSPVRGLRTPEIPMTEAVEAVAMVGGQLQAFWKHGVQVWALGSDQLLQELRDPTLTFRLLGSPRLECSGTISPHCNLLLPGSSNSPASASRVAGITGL"}, "source": "patent US20260116884A1", "about": "“PROTAC CHIMERIC COMPOUND, PREPARATION METHOD THEREFOR AND USE THEREOF” (HANGZHOU ZHONGMEIHUADONG PHARMACEUTICAL CO., LTD., priority 2022, published 2026)", "key": {"[1]": {"system": "IL2 activation in human PBMC", "experiment": "IL2 activity assay (ELISA) in human PBMC", "assay_type": "cell-based", "settings": "read-out: IL2 EC50, CD3/CD28 antibody, 24 h"}, "human HPK1": {"biological_target": "human HPK1 (Homo sapiens, UniProt Q92918)", "experiment": "HPK1 protein degradation assay (WB) in RAMOS cell line", "assay_type": "cell-based", "settings": "RAMOS cells, 16 h, Western blot"}}, "data": [{"compound": "CCN1CCC(n2cc(-c3c[nH]c4ncc(-c5ccc(N6CCC(CC7CCN(C(=O)c8ccc(C)c(N9CCC(=O)NC9=O)c8)CC7)CC6)cc5)nc34)cn2)CC1", "values": [{"measurement": "EC50", "setting": "[1]", "result": 37.1, "unit": "nM"}, {"measurement": "Dmax", "setting": "human HPK1", "result": 52.47, "unit": "%"}]}]}
